The record followed here is ChEMBL document CHEMBL4330144, “A mitochondria-targeted organic arsenical accelerates mitochondrial metabolic disorder and function injury” (Bioorg Med Chem, 2019).

SMILES strings stand for the structures. Calls of active or inactive are those of the source. The rule behind the calls is not given here.

Assay [1] concerns NB-4. Put plainly: Induction of apoptosis in human NB4 cells assessed as early apoptotic cells at 1.2 uM after 24 hrs in presence of Z-VAD-fmk by Annexin V-FITC/propidium iodide staining based flow cytometry (reference value: 5%).
The test system of assay [2] is NB-4. Put plainly: Induction of apoptosis in human NB4 cells assessed as live cells at 1.2 uM after 24 hrs in presence of Z-VAD-fmk by Annexin V-FITC/propidium iodide staining based flow cytometry (reference value: 92%). In general terms: In flow cytometry, cells or beads pass a laser one at a time.
Assay [3] has as its system NB-4. Kind of assay: Induction of cytochrome-c release in human NB4 cells after 24 hrs by ELISA. The format is functional, cell-based. (An ELISA detects its analyte on a solid surface through an enzyme-linked reagent.)
Assay [4] deals with NB-4. Kind of assay: Induction of ROS generation in human NB4 cells at 1.2 uM after 1 to 6 hrs by DCFH-DA staining based flow cytometry.
Assay [5] concerns NB-4. Kind of assay: Induction of apoptosis in human NB4 cells assessed as DNA fragmentation at 1.2 to 2.4 uM after 24 hrs by Hoechst 33342/propidium iodide staining based confocal microscopic method.
For assay [6], the system named is NB-4. Put plainly: Induction of apoptosis in human NB4 cells assessed as late apoptotic cells at 1.2 uM after 24 hrs in presence of Z-VAD-fmk by Annexin V-FITC/propidium iodide staining based flow cytometry (reference value: 2.9%).
In assay [7] the test system is NB-4. Put plainly: Reduction in cell viability in human NB4 cells up to 2.4 uM up to 24 hrs by MTT assay. Type of assay: functional, cell-based. (Tetrazolium dyes change colour on reduction, which living cells bring about.)
Assay [8] relates to NB-4. Put plainly: Induction of apoptosis in human NB4 cells assessed as necrotic cells at 1.2 uM after 24 hrs in presence of Z-VAD-fmk by Annexin V-FITC/propidium iodide staining based flow cytometry (reference value: 0.1%).
Assay [9] deals with NB-4. Kind of assay: Induction of apoptosis in human NB4 cells assessed as early apoptotic cells at 1.2 uM after 24 hrs in presence of Nec-1 by Annexin V-FITC/propidium iodide staining based flow cytometry (reference value: 5%).
For assay [10], the species on record is Rattus norvegicus. Kind of assay: Induction of mitochondrial membrane potential loss in isolated Wistar rat mitochondria assessed as maximum power output at 100 uM using pyruvate as substrate up to 3 hrs by microcalorimetry. The format is functional.
Assay [11] has as its system NB-4. Kind of assay: Induction of mitochondrial membrane potential loss in human NB4 cells assessed as decrease in intracellular ATP level at 1.2 to 2.4 uM after 24 hrs.
The species entered for assay [12] is Rattus norvegicus. Put plainly: Induction of mitochondrial swelling in isolated Wistar rat mitochondria at 25 to 150 uM.
Assay [13] is filed under the species Rattus norvegicus. Put plainly: Induction of mitochondrial membrane potential loss in isolated Wistar rat mitochondria assessed as maximum power output at 50 uM using pyruvate as substrate up to 3 hrs by microcalorimetry. The format is functional.

On to `Nc1ccc([As]2SCCCS2)cc1`, for which the Activity with NB-4 [1] is 9.7%; in the assay on NB-4 [2] it was 84.2%; in the assay with NB-4 [3], “Dose-dependent effect”; in the assay on NB-4 [6], 6%; in the assay with NB-4 [8], 0.1%; in the assay with NB-4 [9], 12.1%. Moreover, the Activity in the assay listed under Rattus norvegicus [10] came out at 96.9 W; in the assay filed under Rattus norvegicus [13] it was 88.2 W. Also, the result in the assay with NB-4 [4] and in the assay filed under Rattus norvegicus [12] was inactive. In addition, the outcome with NB-4 [5], with NB-4 [7] and in the assay with NB-4 [11] was Active.
